Sequences of proteins named here, by UniProt entry; tags and fusion partners are left off.
UniProt P42336, whole entry: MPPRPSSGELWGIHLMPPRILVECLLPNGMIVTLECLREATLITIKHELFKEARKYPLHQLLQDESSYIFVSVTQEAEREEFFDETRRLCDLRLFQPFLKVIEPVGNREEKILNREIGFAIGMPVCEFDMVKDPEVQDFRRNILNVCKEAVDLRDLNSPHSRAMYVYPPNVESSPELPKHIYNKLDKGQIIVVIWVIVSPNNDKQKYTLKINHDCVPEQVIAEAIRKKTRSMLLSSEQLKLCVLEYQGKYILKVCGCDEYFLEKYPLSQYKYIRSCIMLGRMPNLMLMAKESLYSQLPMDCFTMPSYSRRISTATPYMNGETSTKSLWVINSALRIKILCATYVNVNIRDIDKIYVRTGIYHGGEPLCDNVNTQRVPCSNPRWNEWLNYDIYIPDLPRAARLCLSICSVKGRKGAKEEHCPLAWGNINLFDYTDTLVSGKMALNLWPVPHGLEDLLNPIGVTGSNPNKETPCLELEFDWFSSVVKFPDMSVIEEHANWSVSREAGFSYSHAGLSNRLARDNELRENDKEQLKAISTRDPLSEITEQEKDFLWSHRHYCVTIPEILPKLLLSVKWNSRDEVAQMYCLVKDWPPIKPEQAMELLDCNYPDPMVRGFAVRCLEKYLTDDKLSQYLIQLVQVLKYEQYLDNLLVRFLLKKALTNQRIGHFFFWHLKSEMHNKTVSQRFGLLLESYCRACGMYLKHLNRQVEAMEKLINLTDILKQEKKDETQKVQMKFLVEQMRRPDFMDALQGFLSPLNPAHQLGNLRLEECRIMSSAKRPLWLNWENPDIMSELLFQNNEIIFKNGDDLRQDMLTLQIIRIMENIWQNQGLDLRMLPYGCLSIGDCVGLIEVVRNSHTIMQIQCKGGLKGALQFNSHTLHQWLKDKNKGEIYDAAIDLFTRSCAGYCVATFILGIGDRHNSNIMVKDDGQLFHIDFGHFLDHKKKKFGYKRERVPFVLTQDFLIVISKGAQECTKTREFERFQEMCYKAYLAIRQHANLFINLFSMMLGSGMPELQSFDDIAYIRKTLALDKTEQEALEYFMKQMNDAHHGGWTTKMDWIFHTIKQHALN

In ChEMBL document CHEMBL1157707, “Lead optimization of N-3-substituted 7-morpholinotriazolopyrimidines as dual phosphoinositide 3-kinase/mammalian target of rapamycin inhibitors: discovery of PKI-402” (J Med Chem, 2010):

Target: Phosphatidylinositol 4,5-bisphosphate 3-kinase catalytic subunit alpha isoform (Homo sapiens, UniProt P42336)

OCc1cccc(-c2nc(N3CCOCC3)c3ncn(C4CCN(Cc5ccccc5)CC4)c3n2)c1
IC50: 45 nM
